Test system: NAT12

## alpha-thrombin
  cleavage product peak 2, as a share of the original NAT12 peak area: the new peaks constituting 44% (peak 3) and 37% (peak 2), respectively, of the original peak area
  cleavage product peak 3, as a share of the original NAT12 peak area: the new peaks constituting 44% (peak 3) and 37% (peak 2), respectively, of the original peak area
  reduction of the NAT12 HPLC peak area (peak 1) after 8 nM alpha-thrombin, 1 h at 37 °C: its peak area was reduced by 81%
